Experimental findings from PubChem BioAssay AID1768 (National Center for Advancing Translational Sciences (NCATS), 2009) are described below.

By UniProt entry, the sequences of proteins in these tests, tags left out.
UniProt O00255, whole entry: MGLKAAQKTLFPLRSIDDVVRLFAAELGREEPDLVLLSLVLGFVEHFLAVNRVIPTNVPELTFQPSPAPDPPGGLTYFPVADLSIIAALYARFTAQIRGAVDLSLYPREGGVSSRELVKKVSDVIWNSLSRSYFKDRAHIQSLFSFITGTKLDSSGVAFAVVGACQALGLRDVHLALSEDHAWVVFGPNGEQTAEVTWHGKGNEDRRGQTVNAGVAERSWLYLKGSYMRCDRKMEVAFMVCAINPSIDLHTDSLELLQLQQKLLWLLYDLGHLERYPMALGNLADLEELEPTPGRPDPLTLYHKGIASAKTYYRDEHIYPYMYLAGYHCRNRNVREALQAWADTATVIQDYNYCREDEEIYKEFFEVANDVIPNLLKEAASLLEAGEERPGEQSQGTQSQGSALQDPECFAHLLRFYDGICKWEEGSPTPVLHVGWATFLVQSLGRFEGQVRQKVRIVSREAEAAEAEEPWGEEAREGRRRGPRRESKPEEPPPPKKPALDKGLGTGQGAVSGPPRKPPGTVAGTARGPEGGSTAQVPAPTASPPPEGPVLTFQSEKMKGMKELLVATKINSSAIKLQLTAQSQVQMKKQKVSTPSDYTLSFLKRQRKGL
UniProt Q03164, whole entry partner: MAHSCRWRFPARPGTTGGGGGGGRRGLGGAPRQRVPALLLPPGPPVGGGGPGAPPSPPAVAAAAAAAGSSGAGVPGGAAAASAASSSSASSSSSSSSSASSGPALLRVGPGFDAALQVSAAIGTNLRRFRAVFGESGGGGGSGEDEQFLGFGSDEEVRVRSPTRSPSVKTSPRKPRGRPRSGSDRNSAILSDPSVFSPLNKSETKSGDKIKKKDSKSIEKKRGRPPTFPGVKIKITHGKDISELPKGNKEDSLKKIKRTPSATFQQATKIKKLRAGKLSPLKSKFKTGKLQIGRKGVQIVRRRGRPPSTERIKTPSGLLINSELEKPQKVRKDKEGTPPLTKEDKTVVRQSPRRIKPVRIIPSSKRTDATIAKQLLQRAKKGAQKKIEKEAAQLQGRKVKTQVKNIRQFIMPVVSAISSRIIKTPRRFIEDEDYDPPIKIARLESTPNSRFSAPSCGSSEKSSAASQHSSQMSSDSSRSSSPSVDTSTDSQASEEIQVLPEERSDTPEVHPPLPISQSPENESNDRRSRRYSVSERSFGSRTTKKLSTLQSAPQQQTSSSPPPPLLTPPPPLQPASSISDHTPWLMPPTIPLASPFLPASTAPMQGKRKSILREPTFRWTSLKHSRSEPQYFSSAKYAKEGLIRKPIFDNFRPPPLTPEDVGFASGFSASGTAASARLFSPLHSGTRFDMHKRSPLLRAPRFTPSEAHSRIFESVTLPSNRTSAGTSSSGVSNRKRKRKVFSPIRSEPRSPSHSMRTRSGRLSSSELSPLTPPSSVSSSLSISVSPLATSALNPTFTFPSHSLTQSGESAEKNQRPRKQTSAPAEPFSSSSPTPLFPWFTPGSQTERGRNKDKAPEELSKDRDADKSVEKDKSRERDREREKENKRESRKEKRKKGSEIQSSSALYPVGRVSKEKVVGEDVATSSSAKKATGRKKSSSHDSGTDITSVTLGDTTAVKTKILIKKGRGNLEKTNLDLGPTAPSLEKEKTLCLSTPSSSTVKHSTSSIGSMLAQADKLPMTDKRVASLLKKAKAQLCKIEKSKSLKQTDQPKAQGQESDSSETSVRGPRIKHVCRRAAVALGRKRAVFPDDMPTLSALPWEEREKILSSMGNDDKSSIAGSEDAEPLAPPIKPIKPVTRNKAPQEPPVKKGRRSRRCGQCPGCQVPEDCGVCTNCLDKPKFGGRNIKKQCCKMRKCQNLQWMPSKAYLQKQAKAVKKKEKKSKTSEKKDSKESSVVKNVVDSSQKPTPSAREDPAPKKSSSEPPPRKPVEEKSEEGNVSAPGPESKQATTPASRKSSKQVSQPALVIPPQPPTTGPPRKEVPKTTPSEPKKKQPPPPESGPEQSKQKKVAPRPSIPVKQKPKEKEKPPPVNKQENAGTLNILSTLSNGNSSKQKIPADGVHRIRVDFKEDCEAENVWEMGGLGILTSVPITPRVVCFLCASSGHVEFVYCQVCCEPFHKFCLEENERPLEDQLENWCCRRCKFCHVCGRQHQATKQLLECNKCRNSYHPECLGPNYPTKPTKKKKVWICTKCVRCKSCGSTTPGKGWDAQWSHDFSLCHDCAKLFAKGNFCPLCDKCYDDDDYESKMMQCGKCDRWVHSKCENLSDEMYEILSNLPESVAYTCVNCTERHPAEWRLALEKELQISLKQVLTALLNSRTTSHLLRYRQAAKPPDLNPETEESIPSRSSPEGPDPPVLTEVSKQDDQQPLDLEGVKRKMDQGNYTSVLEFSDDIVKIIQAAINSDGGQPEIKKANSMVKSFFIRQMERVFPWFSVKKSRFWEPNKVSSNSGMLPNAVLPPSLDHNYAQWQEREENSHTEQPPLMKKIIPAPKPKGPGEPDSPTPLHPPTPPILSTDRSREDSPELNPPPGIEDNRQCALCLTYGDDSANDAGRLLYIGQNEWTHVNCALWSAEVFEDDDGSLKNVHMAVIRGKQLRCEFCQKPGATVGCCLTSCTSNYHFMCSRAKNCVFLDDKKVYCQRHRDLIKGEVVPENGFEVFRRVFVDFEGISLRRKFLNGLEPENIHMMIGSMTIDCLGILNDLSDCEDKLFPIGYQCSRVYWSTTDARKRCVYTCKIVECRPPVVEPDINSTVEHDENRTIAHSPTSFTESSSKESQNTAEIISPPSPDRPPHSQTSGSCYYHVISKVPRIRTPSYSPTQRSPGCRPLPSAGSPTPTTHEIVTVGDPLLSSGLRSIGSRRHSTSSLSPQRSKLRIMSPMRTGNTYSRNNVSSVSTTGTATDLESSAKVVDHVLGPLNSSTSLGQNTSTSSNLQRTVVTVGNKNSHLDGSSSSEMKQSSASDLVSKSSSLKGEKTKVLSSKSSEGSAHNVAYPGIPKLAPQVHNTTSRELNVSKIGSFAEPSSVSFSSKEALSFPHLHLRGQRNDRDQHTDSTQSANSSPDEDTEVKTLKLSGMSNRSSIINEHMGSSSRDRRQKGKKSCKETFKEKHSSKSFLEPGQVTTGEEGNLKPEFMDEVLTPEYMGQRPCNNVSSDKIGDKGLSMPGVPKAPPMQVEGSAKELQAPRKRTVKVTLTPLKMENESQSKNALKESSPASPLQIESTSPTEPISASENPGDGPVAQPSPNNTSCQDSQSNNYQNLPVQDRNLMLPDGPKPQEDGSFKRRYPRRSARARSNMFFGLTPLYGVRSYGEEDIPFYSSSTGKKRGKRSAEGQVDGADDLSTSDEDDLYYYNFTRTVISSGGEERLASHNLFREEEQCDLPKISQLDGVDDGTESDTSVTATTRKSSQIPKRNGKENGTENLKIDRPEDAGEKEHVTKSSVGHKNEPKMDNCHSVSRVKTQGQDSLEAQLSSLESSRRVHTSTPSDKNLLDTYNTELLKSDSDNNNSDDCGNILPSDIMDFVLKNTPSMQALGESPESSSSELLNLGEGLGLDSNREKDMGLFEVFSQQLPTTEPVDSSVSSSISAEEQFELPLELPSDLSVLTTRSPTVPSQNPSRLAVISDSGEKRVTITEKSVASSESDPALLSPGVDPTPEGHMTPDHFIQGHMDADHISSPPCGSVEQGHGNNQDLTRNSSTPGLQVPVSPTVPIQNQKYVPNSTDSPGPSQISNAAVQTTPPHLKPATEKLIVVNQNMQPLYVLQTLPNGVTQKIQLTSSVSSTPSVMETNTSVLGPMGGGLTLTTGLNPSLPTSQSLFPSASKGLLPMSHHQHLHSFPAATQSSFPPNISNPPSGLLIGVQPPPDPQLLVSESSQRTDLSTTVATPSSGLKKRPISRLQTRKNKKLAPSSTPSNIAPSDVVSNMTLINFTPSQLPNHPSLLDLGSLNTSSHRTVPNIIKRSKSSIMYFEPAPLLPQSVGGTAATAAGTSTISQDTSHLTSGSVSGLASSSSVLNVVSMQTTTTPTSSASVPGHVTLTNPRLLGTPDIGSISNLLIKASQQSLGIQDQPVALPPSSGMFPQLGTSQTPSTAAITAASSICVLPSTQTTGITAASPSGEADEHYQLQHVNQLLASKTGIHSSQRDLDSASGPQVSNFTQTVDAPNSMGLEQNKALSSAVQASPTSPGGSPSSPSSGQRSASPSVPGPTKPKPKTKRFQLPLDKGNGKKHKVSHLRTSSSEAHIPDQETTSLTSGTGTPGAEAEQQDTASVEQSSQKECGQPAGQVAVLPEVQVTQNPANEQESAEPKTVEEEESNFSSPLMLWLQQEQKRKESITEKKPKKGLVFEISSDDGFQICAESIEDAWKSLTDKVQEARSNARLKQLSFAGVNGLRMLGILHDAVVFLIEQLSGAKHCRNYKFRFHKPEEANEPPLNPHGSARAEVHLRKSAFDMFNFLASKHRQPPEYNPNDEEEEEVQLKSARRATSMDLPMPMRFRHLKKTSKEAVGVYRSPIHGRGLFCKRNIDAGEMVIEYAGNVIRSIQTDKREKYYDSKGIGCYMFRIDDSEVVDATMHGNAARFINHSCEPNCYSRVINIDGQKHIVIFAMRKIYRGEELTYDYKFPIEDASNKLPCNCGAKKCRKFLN

Each structure is given as a SMILES string. The list shows a part of the results, in another mix than the full data. Records with an inconclusive call do not appear. Activity calls are given as the source filed them. The call rests on the fitted dose curve; in most records, active means well fitted inhibition curve with a large enough effect in the polarisation, with a control signal flat (not every such curve was filed as active); inconclusive means small, poorly fitted or top-dose-only effect, or effect the other way, or a change in a side signal; inactive means no such curve, though single readings can be large or run the other way; the % refers to the polarisation.

This assay has as its target Menin (Homo sapiens) (UniProt O00255). Put plainly: qHTS Assay for Inhibitors Targeting the Menin-MLL Interaction in MLL Related Leukemias: Competition With Texas Red Labeled MLL-derived Mutant Peptide. Further: % of control where 0% means no effect. To be noted: fluorescence polarization; at 61.6 µM (top of the series). For orientation: Quantitative high-throughput screening tests each substance at several concentrations.
Consider `COc1ccc(N/C(=N/P(=O)(N2CCOCC2)N2CCOCC2)N2CCOCC2)cc1`, for which the FP activity change, negative = inhibition was inactive: -1.59%.
